Results taken from patent publication US20030055065A1, “Tricyclic amide and urea compounds useful for inhibition of G-protein function and for treatment of proliferative diseases” (priority 1993, published 2003).

Amino acid sequences for entries named in this document (tags omitted).
UniProt Q02293, whole entry: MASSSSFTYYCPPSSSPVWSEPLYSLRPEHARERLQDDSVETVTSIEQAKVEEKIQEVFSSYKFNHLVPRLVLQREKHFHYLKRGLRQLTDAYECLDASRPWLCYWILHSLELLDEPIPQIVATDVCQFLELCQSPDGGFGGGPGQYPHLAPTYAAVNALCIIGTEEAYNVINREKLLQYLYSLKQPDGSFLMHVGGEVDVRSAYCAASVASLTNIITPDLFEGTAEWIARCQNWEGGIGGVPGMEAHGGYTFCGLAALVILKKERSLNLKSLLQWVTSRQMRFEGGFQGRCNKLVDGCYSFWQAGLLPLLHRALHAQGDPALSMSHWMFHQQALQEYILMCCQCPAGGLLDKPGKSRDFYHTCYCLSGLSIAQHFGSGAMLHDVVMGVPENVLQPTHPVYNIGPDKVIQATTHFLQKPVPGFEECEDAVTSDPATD

Legend:
[1] = test system: Ras-CVLS processing in COS monkey kidney cells; assay: COS cell assay: Ras-CVLS processing (Western blot); assay type: cell-based; conditions: Primates, read-out: Inhibition of Ras Processing IC50
Description: 2. […] Effect of farnesyl protein transferase inhibitors on Ras processing and on disordered cell growth induced by transforming Ras. COS monkey kidney cells were transfected by electroporation with the plasmid pSV-SPORT (Gibco/BRL) containing a cDNA insert encoding either Ras-CVLS or Ras-CVLL, leading to transient overexpression of a Ras substrate for either farnesyl protein transferase or geranylgeranyl protein transferase I, respectively (see above). […] After 24 hours, media was removed and fresh media containing the appropriate drugs was re-added. 48 hours after electroporation cells were examined under the microscope to monitor disordered cell growth induced by transforming Ras. Cells expressing transforming Ras become more rounded and refractile and overgrow the monolayer, reminiscent of the transformed phenotype. […] Cells were lysed by homogenization and cell debris was removed by centrifugation at 2000×g for 10 min. Cellular protein was precipitated by addition of ice-cold trichloroacetic acid and redissolved in 100 μl of SDS-electrophoresis sample buffer. […] Proteins resolved on the gels were electroblotted onto nitrocellulose membranes for immunodetection. […] E., et al., (1982), Monoclonal antibodies to the p21 products of the transforming gene of Harvey murine sarcome virus and of the cellular ras gene family, J. Virol. 43: 294-304), in PBS containing 1% fetal calf serum for one hour at room temperature. After washing, membranes were incubated for one hour at room temperature with a 1:5000 dilution of secondary antibody, rabbit anti-rat IgG conjugated to horseradish peroxidase, in PBS containing 1% fetal calf serum.

[2] = target: T1, farnesyl protein transferase (FPT), partially purified from rat brain (Rattus norvegicus, UniProt Q02293+Q04631); assay: Inhibition of farnesyl protein transferase (transfer of [3H]farnesyl to Ras-CVLS); assay type: biochemical
T1 construct: were partially purified from rat brain by ammonium sulfate fractionation followed by Q-Sepharose
Description: 1. In vitro enzyme assays: Inhibition of farnesyl protein transferase and geranylgeranyl protein transferase.
Human farnesyl protein transferase was also expressed in E. coli, using cDNA clones encoding both the α and β subunits. […] Human farnesyl protein transferase was partially-purified from the soluble protein fraction of E. coli as described above. […] Two forms of val^12-Ha-Ras protein were prepared as substrates for these enzymes, differing in their carboxy terminal sequence. One form terminated in cysteine-valine-leucine-serine (Ras-CVLS) the other in cystein-valine-leucine-leucine (Ras-CVLL). Ras-CVLS is a substrate for the farnesyl protein transferase while Ras-CVLL is a substrate for geranylgeranyl protein transferase I. The cDNAs encoding these proteins were constructed so that the proteins contain an amino-terminal extension of 6 histidine residues. Both proteins were expressed in Escherichia coli and purified using metal chelate affinity chromatography. The radiolabelled isoprenyl pyrophosphate substrates, [^3H]farnesyl pyrophosphate and [3H]geranylgeranyl pyrophosphate, were purchased from DuPont/New England Nuclear.
The reaction was allowed to proceed for 30 minutes at room temperature and then stopped with 0.5 ml of 4% sodium dodecyl sulfate (SDS) followed by 0.5 ml of cold 30% trichloracetic acid (TCA). Samples were allowed to sit on ice for 45 minutes and precipitated Ras protein was then collected on GF/C filter paper mats using a Brandel cell harvester. […] Percent inhibition was calculated relative to the DMSO vehicle control.

[3] = Ras-CVLS farnesylation, partially purified rat brain FPT

O=C(CN1C(=O)c2ccccc2C1=O)N1CCN(C2c3ccc(Cl)cc3CCc3cccnc32)CC1 (stereo not shown) [Example 76]
IC50 [1]: 39.9 µM

O=C(Cc1cccnc1)N1CCN(C2c3ccc(Cl)cc3CCc3ccc[n+]([O-])c32)CC1 (stereo not shown) [184 (5.60)]
IC50 [1]: 11.5 µM

O=C(Nc1ccncc1)N1CCN(C2c3ccc(Cl)cc3CCc3cccnc32)CC1 (stereo not shown) [183 (6.5)]
IC50 [1]: 10.5 µM

O=C(Cc1ccc[n+]([O-])c1)N1CCN(C2c3ccc(Cl)cc3CCc3cccnc32)CC1 (stereo not shown) [Example 197]
IC50 [1]: 11.1 µM

CCOC(=O)N1CCC(C(=O)N2CCN(C3c4ccc(Cl)cc4CCc4cccnc43)CC2)CC1 (stereo not shown) [Example 317]
IC50 [2, 3]: 13.3 µM

O=C(Cc1ccc(Br)cc1)N1CCN(C2c3ccc(Cl)cc3CCc3cccnc32)CC1 (stereo not shown) [Example 77]
IC50 [2, 3]: 2.04 µM
IC50 ([2]; enzyme inhibition): 2.04 µM
